Laboratory results: PMC12186753 (ACS pharmacology & translational science, 2025)

Chains of the proteins cited; added tags and fusions are not shown. Residues count along the entry.
UniProt P00747, 97-580 limits assumed: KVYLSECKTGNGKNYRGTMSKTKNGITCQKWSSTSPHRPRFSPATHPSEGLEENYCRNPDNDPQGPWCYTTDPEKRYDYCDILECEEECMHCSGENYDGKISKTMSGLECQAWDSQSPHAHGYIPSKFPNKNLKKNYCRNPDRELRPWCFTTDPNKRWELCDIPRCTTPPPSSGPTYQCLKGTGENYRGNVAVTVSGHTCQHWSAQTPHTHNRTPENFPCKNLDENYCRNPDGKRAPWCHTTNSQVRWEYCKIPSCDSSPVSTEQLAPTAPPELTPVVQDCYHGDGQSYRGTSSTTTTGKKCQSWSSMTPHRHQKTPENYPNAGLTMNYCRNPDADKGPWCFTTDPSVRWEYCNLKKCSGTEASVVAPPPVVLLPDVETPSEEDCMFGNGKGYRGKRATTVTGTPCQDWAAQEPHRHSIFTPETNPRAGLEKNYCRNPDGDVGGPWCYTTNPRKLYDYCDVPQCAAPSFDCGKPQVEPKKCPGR
UniProt P00747, 581-810 limits assumed: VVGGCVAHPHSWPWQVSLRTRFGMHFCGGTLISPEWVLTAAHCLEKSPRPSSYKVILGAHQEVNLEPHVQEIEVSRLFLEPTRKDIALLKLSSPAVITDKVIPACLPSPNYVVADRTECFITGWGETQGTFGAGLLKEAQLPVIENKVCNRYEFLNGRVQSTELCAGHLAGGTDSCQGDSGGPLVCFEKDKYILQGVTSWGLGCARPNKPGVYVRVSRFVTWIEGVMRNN

Target: plasmin (Homo sapiens, UniProt P00747)
Assay: Plasmin inhibition assay with chromogenic substrate S-2251 (Dixon plot, Cornish-Bowden plot)
Format: biochemical

**Q.** Which results are given for NC[C@H]1CC[C@H](C(=O)NCCCC[C@H](NC(=O)[C@H]2CC[C@H](CN)CC2)C(N)=O)CC1?
**A.** Mode of inhibition (Cornish-Bowden S/Vo vs I plot): weak competitive inhibitor; rp/n: relative potency/number of TXA units: 1.7; rp: relative potency = Ki^TXA/Ki^multi: 3.3
